Values of other authors as cited in patent publication US10501414B2, “Indole analogs as 5-oxo-ETE receptor antagonists and method of use thereof” (THE ROYAL INSTITUTION FOR THE ADVANCEMENT OF …, priority 2015, dated 2019).

Sequences of proteins named here, by UniProt entry; tags and fusion partners are left off.
UniProt Q8TDS5, whole entry: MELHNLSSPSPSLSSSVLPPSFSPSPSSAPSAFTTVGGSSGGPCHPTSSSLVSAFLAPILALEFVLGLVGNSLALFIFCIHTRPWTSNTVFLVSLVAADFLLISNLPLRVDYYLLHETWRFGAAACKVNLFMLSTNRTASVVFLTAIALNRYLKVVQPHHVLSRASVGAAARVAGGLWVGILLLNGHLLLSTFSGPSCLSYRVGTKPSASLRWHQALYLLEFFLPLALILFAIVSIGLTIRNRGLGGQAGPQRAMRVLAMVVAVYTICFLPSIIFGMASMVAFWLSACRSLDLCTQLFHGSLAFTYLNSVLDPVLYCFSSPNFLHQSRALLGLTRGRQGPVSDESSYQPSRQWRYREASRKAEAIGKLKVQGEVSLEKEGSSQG

Target: OXE receptor (Homo sapiens, UniProt Q8TDS5)
Conditions: read-out: IC50, previously disclosed/reported; previously described values for V230 and its enantiomers; cited from earlier work

## CCCCCCc1c(C(=O)C[C@H](C)CC(=O)O)c2cc(Cl)ccc2n1C [Compound V230]
  IC50: 0.006 µM

## CCCCCCc1c(C(=O)C[C@@H](C)CC(=O)O)c2cc(Cl)ccc2n1C
  IC50: 2.73 µM
